The values that follow are results of earlier work, collected in paper PMC8836281, “Characterisation of Endogenous Peptides Present in Virgin Olive Oil” (International Journal of Molecular Sciences, 2022).

The IC50 is the concentration at which inhibition is half-maximal.

The subject of data set [1] is ACE. Conditions: C-terminal dipeptide of CPANGFY; read-out: ACE inhibition IC50 range; cited from earlier work.
For data set [2] the following is noted: no reference given; cited from earlier work.

Regarding FY: C-terminal dipeptide of CPANGFY, the IC50 in data set [1] is 1.65 to 42.6 µM. Besides, the “antihypertensive activity in vivo” value in data set [2] is reported as “confirmed in vivo for antihypertensive activity”.
